# Ab-14 heavy chain CDR variants: yeast mating affinities

Binding partner: SARS-CoV-2 spike HR2 peptide, sequence PDVDLGDISGINAS.

Parent: Ab-14, a human scFv built as VH, a (GGGGS)3 linker, VL. Only the CDRs of the heavy chain vary.
VH: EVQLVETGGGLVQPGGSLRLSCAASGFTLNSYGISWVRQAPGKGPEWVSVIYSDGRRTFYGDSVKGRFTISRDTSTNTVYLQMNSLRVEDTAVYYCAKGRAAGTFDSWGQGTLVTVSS
VL: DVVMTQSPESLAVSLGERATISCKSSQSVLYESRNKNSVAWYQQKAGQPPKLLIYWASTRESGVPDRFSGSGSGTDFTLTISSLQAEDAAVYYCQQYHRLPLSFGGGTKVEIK

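The starting antibody came from a phage panning campaign against this peptide. These sequences belong to a second round, designed from the earlier measurements on random variants of the parent. Their group label is 14H_En_Gibbs (En: ensemble of fine-tuned language models; Gibbs: Gibbs sampling). Affinity was read by AlphaSeq, a pooled yeast mating assay with surface-displayed partners. The frequency of each diploid, read from paired DNA barcodes, reflects how well the two displayed proteins bind. The ratio of observed to expected reads was calibrated, replicate by replicate, on BCL2-family standards whose Kd was known from biolayer interferometry. Mating was done six times.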

The parent's heavy chain CDRs are GFTLNSYGIS, VIYSDGRRTFYGDSVK, GRAAGTFDS; each variant's own CDRs replace them letter for letter. Values are log10 of the apparent Kd in nM; lower means stronger binding. A mean of the replicates is given; it leaves out those without a signal. A pair that was not seen in that replicate is written "nd"; this usually means weak binding, but a binder can also be missed. In the paper, a design with two or fewer of six values counts as a poor binder. Three control strains display no target. For all heavy chain designs, 1% of the pairings with them gave a signal, with a median of 2.08 and one signal in twenty below 0.84, so weak values seen in few replicates may be background. Also given: how often the same scFv was detected with the empty control strains, with their mean in brackets. A sequence measured in both rounds can read differently, since the two assays cover different ranges.

CDR-H1	CDR-H2	CDR-H3	replicates, log10 nM	mean, log10 nM	empty controls
GFGLDEYGIS	VIYADGQRKSYTDDVK	GLYTNKKGI	nd / nd / nd / nd / nd / nd	nd	0 of 18
GFNLEDYGIS	VIYADGHRASYVESVK	GGLAGTFDE	-0.40 / 0.19 / -0.01 / -0.55 / -0.22 / -0.17	-0.19	1 of 18 (1.42)
GFDLDEYGIS	VIYADGMRSVYADSVK	GTGGGTIEA	nd / nd / nd / nd / nd / nd	nd	0 of 18
GFQIDEYGIS	VIYADGLRTAYSQAVK	GMDTGLFMD	nd / nd / nd / nd / nd / nd	nd	1 of 18 (1.22)
GFDINEYGIS	VMYADGSRSVYQDKVK	GFQSGTFDT	nd / 0.52 / 0.71 / 0.61 / 2.62 / 0.55	1.00	0 of 18
GKSLDEYGIS	VIYADGMRHEYTDSVK	GQFDDGMDL	nd / nd / nd / nd / nd / nd	nd	1 of 18 (1.81)
EFDLMEYGIS	VIYADGHRTFYAEHVK	GTNSGVFDT	nd / nd / nd / nd / nd / nd	nd	0 of 18
GDDIDEYGIS	VIYADGHRSQYSEQVK	GNNAGTLDE	nd / nd / nd / nd / nd / nd	nd	0 of 18
GFNLNEYGIS	VIYADGLRTQYIDSVK	GNAFIFGLD	nd / nd / nd / nd / nd / nd	nd	1 of 18 (0.42)
GFNIMEYGIS	VIYADGTRTAYANTVK	GKYVDTFVD	nd / nd / nd / nd / nd / nd	nd	0 of 18
GKKLDEYGIS	VIYADGVRTHYAESVK	GLHGTYLVI	nd / nd / nd / nd / nd / nd	nd	0 of 18
GFDLNEYGVS	VIYADGKRTAYTDTVK	GNQFDAWMA	nd / nd / nd / nd / nd / nd	nd	0 of 18
GFSLDEYGIS	VIYADGARAFYTNKVK	GVTVGDNGT	nd / nd / nd / nd / nd / nd	nd	1 of 18 (1.46)
GFDIEEYGIS	VIYADGVRAMYKSNFK	GKIAGTGLT	nd / nd / nd / nd / nd / 1.04	1.04	0 of 18
GFDLDEYGIS	VIYADGARSFYTNKVK	GVTVGDNGT	nd / nd / nd / nd / nd / nd	nd	0 of 18
GQDINEYGIS	VIYADGVRTQYSDSVK	SGTDVAMTV	nd / nd / nd / nd / nd / nd	nd	0 of 18
GFALEEYGIS	VIYADGKRTAYANKVK	GGYSFLKGI	nd / nd / nd / nd / nd / nd	nd	0 of 18
GFSLDEFGIS	VIYADGMRSFYTDNVK	GINGNALWI	nd / nd / nd / nd / nd / nd	nd	0 of 18
GFDLNEYGIS	VIYADGVRTQYANSVK	NGLRYQNKL	nd / nd / nd / nd / nd / nd	nd	0 of 18
GFDLEEYGIS	VIYADGKRAQYTDAVK	GEFLDMMTY	0.82 / 1.29 / 0.17 / 0.19 / 1.32 / 1.87	0.94	0 of 18
GKTLDEYGIS	VIYADGMRTQYIDSVK	GGIDGWNMI	nd / nd / nd / nd / nd / nd	nd	0 of 18
GFDIEDYGIS	VIYADGKRSAYSNSVK	GLMAGNMGY	-0.23 / -0.19 / 0.93 / -0.06 / -0.06 / 0.20	0.10	1 of 18 (3.49)
GEDLNEYGVS	VIYADGIRSTYADKFK	GKHGAAFFV	nd / nd / nd / nd / nd / nd	nd	1 of 18 (2.12)
GFNLGEYGIS	VIYADGKRTAYSESVK	GNSAGTFNH	0.71 / 0.57 / 0.66 / 0.70 / 0.05 / 0.87	0.59	0 of 18
GFDLESYGIS	VIYADGMRTSYTQNVK	GQNVMIMTG	nd / nd / nd / nd / nd / nd	nd	0 of 18
GFHLDEYGIS	VIYADGMRTQYDQNVK	GGIRAYFDG	nd / nd / nd / nd / nd / nd	nd	0 of 18
GFDIQEYGVS	VIYADGNRSQYSDNVK	GIIGDNVVI	nd / nd / nd / nd / nd / nd	nd	0 of 18
GFQLEEYGIS	VIYADGSRTAYQDSVK	GKYKFSLVV	-0.01 / -0.29 / 0.20 / -0.16 / 0.25 / -0.32	-0.06	0 of 18
GKDIESYGVS	VIYADGKRTAYANNFK	GSNAGSFVS	nd / 2.95 / nd / nd / 1.31 / 1.93	2.06	1 of 18 (1.69)
GFDLNEYGIS	VIYADGIRTAYSDQVK	DRDGIVILF	0.44 / 0.46 / 1.40 / 0.56 / 1.80 / 0.56	0.87	0 of 18
GFDLNEYGIS	VIYADGMRVSYTNTVK	GGNSMISAT	nd / nd / nd / nd / nd / nd	nd	0 of 18
GFSLDEMGIS	VIYADGQRTMYQASVK	GQNIGNVFV	nd / nd / nd / nd / nd / nd	nd	0 of 18
GEVLDEYGIS	VIYADGQRVQYTDAVK	GLLTGAFDM	nd / nd / nd / nd / nd / nd	nd	1 of 18 (2.12)

Reference: Li et al. 2023, doi:10.1038/s41467-023-39022-2. File: FLAb, binding data.